Data taken from patent publication US6358953B1, “Pterin antineoplastic agents” (priority 1998, dated 2002).

Test: Observed toxicity in C3H/HeN-MTV+ mice at therapeutic dosages
Type: in vivo
Conditions: consumed by the experimental mice at therapeutic dosages
Source text: The A-line at 42% represents the level of activity established by the N.C.I. for “significant antitumor activity”. The B-line at about 10% depicts the level representing a “high degree of antitumor activity”.

Substance: CaCl2(pterin)4
- toxicity: no observed toxicity
